One data set has as its system ICR mice. As to the kind of experiment: Inhibitory activity assay against ear swelling in ICR mice (phorbol ester, TPA). The note with it: for Thickness: right ear, test compounds 3% cream, pimecrolimus cream 10 mg/g, compound dexamethasone acetate cream 0.75 mg/g, 50 µL. The protocol: • ICR mice, male, 20±2 g. • 3.2 Reagents: Inflammatory agent (phorbol ester (TPA)).
ICR mice were randomly divided into groups, with 8 mice in each group. The thickness of the right ear of each animal was measured using a micrometer. Subsequently, except for the blank control group, all mice in other groups were administered 20 µL of 0.03% TPA on both the inner and outer sides of the right ear (10 µL per side) to induce inflammation. The mice were dosed once at 1 h before modeling and 1 h after modeling, respectively. The test groups (Compound 1, Compound 16) received a dose volume of 50 µL each time. The blank control group and the model group (with matrix) were treated with the corresponding volumes of blank matrix (pimecrolimus cream matrix). The positive control group was treated with an equal volume of pimecrolimus cream or compound dexamethasone acetate cream. Before modeling, the ears should be cleaned prior to TPA application. Ear thickness measurement: The thickness of the right ear was measured at 0 h, 2 h, 4 h, and 6 h after TPA induction.
• Test compounds: The formulations were prepared with reference to pimecrolimus cream (from MEDA Manufacturing) (test compound concentration: 3%). • Positive control: Commercially available compound dexamethasone acetate cream (from China Resources Sanjiu Medical & Pharmaceutical Co., Ltd., specification: 0.75 mg/g); commercially available pimecrolimus cream (from MEDA Manufacturing, specification: 10 mg/g).

Data set [1] can be described thus: Tissue distribution study. To be noted: intragastric 30 mg/kg. The protocol:
3 mg of Compound 16 was accurately weighed, added to solvent (5% DMSO + 5% Tween 80 + 20% PEG400 + 70% double-distilled water), and ultrasonicated until completely dissolved to prepare a 3 mg/mL dosing solution. ICR mice were fasted for 16 h before administration, allowed free access to food and water during the study, and administered intragastrically at a dose of 30 mg/kg. The sampling sites and time points were as follows: […]

The next data set concerns BALB/c mice. As to the kind of experiment: Chloroquine-induced pruritus in mice. To be noted: for Number of scratching bouts: 100 mg once daily for 3 days, test compounds 3% cream, pimecrolimus cream 10 mg/g. The procedure: • 6.1 Animals: Balb/c mice, female. • 6.2 Reagents: Chloroquine; normal saline.
After 3 days of adaptive feeding, 50 female Balb/c mice were randomly divided into groups, with 10 mice in each group. The hair on a 2×3 cm^2 area of the back of each mouse was completely removed using depilatory cream. Except for the blank control group, the test groups (Compound 1, Compound 16) and the model group were treated with the corresponding drugs or matrix (pimecrolimus cream matrix) at the depilated site, 100 mg per time, once daily for 3 consecutive days. The positive control group was treated with the corresponding weight of pimecrolimus cream. Thirty minutes after the last administration, chloroquine (40 mg/kg) was injected subcutaneously. The blank control group was injected subcutaneously with the corresponding volume of normal saline only. The number of scratching bouts within 20 min after chloroquine injection was recorded.
• Test compounds: The formulations were prepared with reference to pimecrolimus cream (test compound concentration: 3%). • Positive control: Commercially available pimecrolimus cream (from MEDA Manufacturing, specification: 10 mg/g).

The test system of the next data set is SD rats. The experiment in a line: Radiation dermatitis assay (X-ray, 25 Gy). The protocol: • 5.1 Animals: SD rats, SPF grade, male, 230-250 g. • 5.2 Equipment: RS 2000·Pro 225 Rad Source X-ray Irradiator; SpectraMax i3 Multifunctional Microplate Reader.
Eighty SD rats were randomly divided into groups, with 10 rats in each group. Except for the blank control group, all rats were subjected to modeling using a Rad Source X-ray irradiator. The hair on the irradiation site was removed 24 hours before irradiation. On the day of irradiation, the rats were anesthetized and received a single X-ray irradiation on the posterior buttock at a dose of 25 Gy, a dose rate of 4 Gy/min, and an irradiation area of 2×2 cm^2. On the second day after irradiation, the test groups (Compound 1, Compound 16, Compound 21) received the corresponding drugs, 100 mg per time, once daily for 28 consecutive days. The blank control group and the model (with matrix) group received the corresponding weight of blank matrix (triethanolamine cream matrix). The positive control group was treated with the corresponding weight of triethanolamine cream or hydrocortisone butyrate cream. At the end of administration, the damaged skin was scored according to erythema/darkening, edema/papules, exudation/crusting, and erosion, with reference to the scoring criteria for atopic dermatitis. After scoring, skin from the damaged site was collected and homogenized, and the content of inflammatory cells in the skin was detected using an ELISA kit. Additional skin was collected, fixed, and then stained with HE, and the number of inflammatory cells was observed.
• Test compounds: The formulations were prepared with reference to triethanolamine cream (test compound concentration: 0.5%). • Positive controls: Commercially available triethanolamine cream (from JOHNSON & JOHNSON SANTE BEAUTE FRANCE, specification: 0.67%); hydrocortisone butyrate cream (from Hubei Heng'an Fulin Pharmaceutical Co., Ltd., specification: 1 mg/g).

Where [2] appears, read: result in words, pathological observation of rat skin.

Marks after values point to notes of the source that are not given here.

`CC1(C)C(=O)C(Cl)=C[C@]2(C)[C@H]3C(=O)C=C4[C@@H]5C[C@@](C)(C(=O)O)CC[C@]5(C)CC[C@@]4(C)[C@]3(C)CC[C@@H]12`: in the data set with ICR mice (result in words), the “inhibitory activity in the mouse ear swelling inflammation model induced by phorbol ester” value was “significant inhibitory activity”. Besides, the Thickness in the data set on ICR mice (0 h after TPA induction) is reported as 0.215 ± 0.008 mm; with ICR mice (2 h after TPA induction), 0.262 ± 0.035 mm; in the data set on ICR mice (4 h after TPA induction), 0.303±0.032 mm; in the data set on ICR mice (6 h after TPA induction) it was 0.352±0.033 mm. Besides, the Tmax amounted to 1 h in data set [1] (Colon); 4 h in data set [1] (Kidney); 2 h in data set [1] (Liver); 1 h in data set [1] (Lung); 1 h in data set [1] (Plasma). In addition, the “Number of scratching bouts” value was 17+4 with BALB/c mice (0-10 min after chloroquine 40 mg/kg s.c.), 33 · in the data set with BALB/c mice (0-20 min after chloroquine 40 mg/kg s.c.) and 16+4** in the data set with BALB/c mice (10-20 min after chloroquine 40 mg/kg s.c.). Moreover, the “number of scratching bouts in mice” value in the data set on BALB/c mice (result in words) is given as “significantly reduce”. In addition, the Score (skin lesion score of radiation dermatitis) in the data set with SD rats (end of administration, 100 mg once daily for 28 days, test compounds 0.5% cream, triethanolamine cream 0.67%, hydrocortisone butyrate cream 1 mg/g) was 4.7 ···. The “content of the cytokine TGF-β1” value in the data set on SD rats (result in words) is given as “significantly reduce”. The “number of inflammatory cells in the rat radiation dermatitis model” value in the data set on SD rats (result in words) is on record as “significantly reduce”. Further, in the data set on SD rats (result in words), the “release of the inflammatory cytokine TNF-α” value was “significantly reduce”. Moreover, in the data set with SD rats (result in words), the skin lesion area entry is on record as “significantly reduce”. The “skin lesion score in the rat radiation dermatitis model” value with SD rats (result in words) was “significantly reduce”. Besides, in the data set on SD rats (setting [2]), the “amount of new granulation tissue in the dermis” value was “significantly increased”. The “number of capillaries in the dermis” value in the data set with SD rats (setting [2]) is “significantly increased”. For the same molecule, the Number of inflammatory cells in the data set on SD rats (skin, HE staining, 100 mg once daily for 28 days, test compounds 0.5% cream, triethanolamine cream 0.67%, hydrocortisone butyrate cream 1 mg/g) is 183 ···.

The values above are taken from patent EP4831188A1, “GLYCYRRHETINIC ACID DERIVATIVE AND USE THEREOF” (dated 2026).
